Results on one sequence are retold here after publication PMC4604765, “Eye drop delivery of pigment epithelium-derived factor-34 promotes retinal ganglion cell neuroprotection and axon regeneration” (Molecular and Cellular Neurosciences, 2015).

Data set [1] deals with retinal ganglion cells (RGCs). Nature of the data set: RGC survival after optic nerve crush (FluroGold backfilling, retinal wholemounts). Type of data set: in vivo. Conditions: weekly intravitreal injection (0, 7, 14 days) of 1.88 nM in 5 μl PBS, 21 days after ONC, rat; n = 6 rats/12 eyes; ONC + PBS 295 ± 15. The method, then:
In a separate set of experiments comprising the same treatment groups, 6 rats/treatment (i.e. 12 eyes/optic nerves/treatment) were used to evaluate RGC axon regeneration by immunostaining with growth-associated protein-43 (GAP-43) in the optic nerve.
In further experiments, 12 rats (24 eyes/optic nerves)/treatment received 1.88 nM PEDF-34 eye drops daily. Six rats (12 eyes)/treatment were used to assess RGC survival at 21 days using FG backfilling, whilst the remaining 6 rats (12 eyes/optic nerves)/treatment were used to evaluate RGC axon regeneration at 21 days by GAP-43 immunohistochemistry. […]
Nineteen days after ONC, FG (Cambridge Biosciences, Cambridge, UK) was injected into the optic nerve, between the lamina cribrosa and the ONC site ([Vigneswara et al., 2013, 2014]). […] The identity of individual retinae was anonymised by a second investigator before image capture using a Zeiss epifluorescent microscope and the number of FG^+ RGCs counted in ImagePro Version 6.0 (Media Cybernetics) from captured images of 12 rectangular areas, 3 from each quadrant, placed at radial distances from the centre of the optic disc of the inner (1/6 eccentricity), midperiphery (1/2 eccentricity) and outer retina (5/6 eccentricity). The mean densities of FG^+ RGCs/mm^2 for each retina were determined.

A short description of data set [2]: Ophthalmoscope monitoring for corneal reactions to PEDF-34 eye drops. Type of data set: in vivo, rat. Conditions: daily eye drops of 1.88 nM for 28 days. As to the method: Eyes receiving eye drops were carefully monitored with an ophthalmoscope for signs of corneal reactions to PEDF-34, including redness, inflammation or opacity throughout the duration of the experiment. […] Daily PEDF-34 eye drops induced a gradual increase in the levels of PEDF-34 in both the vitreous and the retina over the first 7 days which peaked at 14 days to 1.4 ± 0.045 nM and 0.65 ± 0.025 nM, respectively (Fig. 4). After extending the treatments for 28 days, no further increase in the level of PEDF-34 was apparent in either the vitreous or retina (Fig. 4).

Data set [3] in a line: Accumulation of PEDF-34 in the eye after eye drops, western blot and densitometry. In kind it is in vivo, rat. Conditions: for fold increase in PEDF-34 in vitreous and retina over intact eyes: single eye drop of 1.88 nM, western blot densitometry. The method, then:
Protein extraction and western blots were performed according to our previously published methods ([Vigneswara et al., 2013, 2014]). Briefly, tissues from 6 rats/treatment (i.e. 12 retinae) were homogenised in ice-cold lysis buffer (20 mM Tris, pH 7.4, 2 mM EDTA, 0.5 mM EGTA, 150 mM NaCl, 1% NP-40 and 5 μl/ml protease inhibitor cocktail) and 40 μg of total protein was resolved in 12% SDS gels, transferred to polyvinylidene fluoride membranes (Millipore, Watford, UK) and probed overnight at 4 °C with appropriate antibodies. Bands were detected with HRP-labelled secondary antibodies (GE Healthcare, Buckinghamshire, UK) using an enhanced chemiluminescence kit (GE Healthcare).
Western blots were scanned into Adobe Photoshop (Adobe Systems Inc., San Jose, CA, USA) keeping all scanning parameters the same between blots. Bands were then analysed using the built-in-macros for gel analysis in ImageJ (NIH, USA, http://imagej.nih.gov/ij) and means ± SEM plotted in Microsoft Excel (Microsoft Corporation, CA, USA) ([Ahmed et al., 2005, 2006a, 2011; Douglas et al., 2009]). The integrated density of each protein band in each lane was derived from 3 separate blots from 3 independent experiments.

For data set [4] the following is noted: daily eye drops of 1.88 nM for 28 days, ELISA.

No end group written: not given here.

Turning to “DPFFKVPVNKLAAAVSNFGYDLYRVRSSTSPTTN [PEDF-34]”, the “number of FG+ RGC surviving” value in data set [1] came out at 1720 ± 38 RGCs/mm^2. In data set [2], the “signs of corneal reactions (redness, inflammation or opacity)” value is “None of the PEDF-34 treated eyes exhibited any of these symptoms”. The “time within which PEDF-34 accumulates in the vitreous” value in data set [3] (after eye drop delivery of 1.88 nM) was no more than 0.5 h. For the same sequence, the “fold increase in PEDF-34 in vitreous and retina over intact eyes” value in data set [3] (0.5 h, 3 blots from 3 independent experiments) came to 4.9 fold; in data set [3] (4 h) it was 3.8 fold; in data set [3] (24 h), 1.8 fold. Besides, in data set [4], the “time at which levels in vitreous and retina peaked (plateau thereafter)” value was determined as 14 days.
